# Results as given in patent US20220339180A1, “Methods And Compositions For Treating Viral Diseases Using Combination Of Drugs” (priority 2021, published 2022).
# Target: CoV-2 RdRp (Severe acute respiratory syndrome coronavirus 2, UniProt P0DTD1)
# Assay type: biochemical, SARS-CoV-2
smiles,measurement,value
CNC(=O)c1cc(Oc2ccc(NC(=O)Nc3ccc(Cl)c(C(F)(F)F)c3)cc2)ccn1 [Sorafenib],inhibition of kinase like activity of CoV-2 RdRp,significantly abrogated
